# Source: patent US12398154B2, “Azaquinazoline pan-KRas inhibitors” (Mirati Therapeutics, Inc., priority 2020, dated 2025)
# The chains behind the UniProt entries cited, without tags or fusion partners. Where a name states a change or a piece, a line headed by the entry shows the natural chain unless it says otherwise.
# UniProt P01116: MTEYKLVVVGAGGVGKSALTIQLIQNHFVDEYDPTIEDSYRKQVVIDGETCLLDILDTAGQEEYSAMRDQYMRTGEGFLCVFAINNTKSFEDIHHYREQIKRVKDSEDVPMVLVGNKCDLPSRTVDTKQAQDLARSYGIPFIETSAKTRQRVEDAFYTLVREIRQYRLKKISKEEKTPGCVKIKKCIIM
# Legend:
# KRas Q61H = biological target: T1, KRas Q61H (Homo sapiens, UniProt P01116, Q61H); assay: KRas binding assay (TR-FRET displacement); conditions: TR-FRET tracer displacement, 60-minute incubation at room temperature;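 note: TR-FRET signal read after one hour at room temperature, IC50 derived by four-parameter fitting of percent-of-control values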
# T1 construct: Biotinylated KRas (corresponding to amino acids 1-169, produced at Accelegan Inc.); biotin (biotinylated); purchased Accelegan Inc
# KRas G13D = biological target: T2, KRas G13D (Homo sapiens, UniProt P01116, G13D); assay: KRas binding assay (TR-FRET displacement); conditions: TR-FRET tracer displacement, 60-minute incubation at room temperature;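 note: One-hour room temperature incubation before TR-FRET reading, IC50 from a four-parameter curve fit to percent-of-control data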
# T2 construct: Biotinylated KRas (corresponding to amino acids 1-169, produced at Accelegan Inc.); biotin (biotinylated); purchased Accelegan Inc
Compound,IC50 (KRas Q61H) [µM],IC50 (KRas G13D) [µM]
"Cc1cccc2cccc(-c3ncc4c(N5CCCC6(CC(=O)N6)C5)nc(OCC56CCCN5CCC6)nc4c3F)c12 (stereo not shown) [Example 450, 6-(8-fluoro-2-((hexahydro-1H-pyrrolizin-7a-yl)methoxy)-7-(8-methylnaphthalen-1-yl)pyrido[4,3-d]pyrimidin-4-yl)-1,6-diazaspiro[3.5]nonan-2-one]",0.388,0.481
"N#Cc1cccc2cccc(-c3ncc4c(N5CCCC6(CC(=O)N6)C5)nc(OCC56CCCN5CCC6)nc4c3F)c12 (stereo not shown) [Example 451, 8-(8-fluoro-2-((hexahydro-1H-pyrrolizin-7a-yl)methoxy)-4-(2-oxo-1,6-diazaspiro[3.5]nonan-6-yl)pyrido[4,3-d]pyrimidin-7-yl)-1-naphthonitrile]",3.81,1.99
"O=C1NCC2(CCCN(c3nc(OCC45CCCN4CCC5)nc4c(F)c(-c5cccc6cccc(CO)c56)ncc34)C2)N1 (stereo not shown) [Example 453, 7-(8-fluoro-2-((hexahydro-1H-pyrrolizin-7a-yl)methoxy)-7-(8-(hydroxymethyl)naphthalen-1-yl)pyrido[4,3-d]pyrimidin-4-yl)-1,3,7-triazaspiro[4.5]decan-2-one]",0.679,0.503
"Cc1cccc2cccc(-c3ncc4c(N5CCCC6(CNC(=O)N6)C5)nc(OCC56CCCN5CCC6)nc4c3F)c12 (stereo not shown) [Example 454, 7-(8-fluoro-2-((hexahydro-1H-pyrrolizin-7a-yl)methoxy)-7-(8-methylnaphthalen-1-yl)pyrido[4,3-d]pyrimidin-4-yl)-1,3,7-triazaspiro[4.5]decan-2-one]",0.213,0.2
"Cc1cccc2cccc(-c3ncc4c(N5CCCC(c6nc[nH]n6)C5)nc(OCC56CCCN5CCC6)nc4c3F)c12 (stereo not shown) [Example 455, 4-(3-(1H-1,2,4-triazol-3-yl)piperidin-1-yl)-8-fluoro-2-((hexahydro-1H-pyrrolizin-7a-yl)methoxy)-7-(8-methylnaphthalen-1-yl)pyrido[4,3-d]pyrimidine]",11.6,13.1
"C#Cc1cccc2cccc(-c3ncc4c(N5C[C@@H]6C(=O)NC(=O)[C@@H]6C5)nc(OCC56CCCN5CCC6)nc4c3F)c12 [Example 458, (3aR,6aS)-5-(7-(8-ethynylnaphthalen-1-yl)-8-fluoro-2-((hexahydro-1H-pyrrolizin-7a-yl)methoxy)pyrido[4,3-d]pyrimidin-4-yl)tetrahydropyrrolo[3,4-c]pyrrole-1,3(2H,3aH)-dione]",0.067,0.046
"Cc1cc(N)nc(-c2ncc3c(N4CCCC(C)(O)C4)nc(OC[C@@]45CCCN4C[C@H](F)C5)nc3c2F)c1C(F)(F)F (stereo partly drawn) [Example 459, 1-(7-(6-amino-4-methyl-3-(trifluoromethyl)pyridin-2-yl)-8-fluoro-2-(((2R,7aS)-2-fluorohexahydro-1H-pyrrolizin-7a-yl)methoxy)pyrido[4,3-d]pyrimidin-4-yl)-3-methylpiperidin-3-ol]",0.793,0.586
"NS(=O)(=O)CC1CCCN(c2nc(OCC34CCCN3CCC4)nc3c(F)c(-c4cccc5cccc(CF)c45)ncc23)C1 (stereo not shown) [Example 460, 1-(1-(8-fluoro-7-(8-(fluoromethyl)naphthalen-1-yl)-2-((hexahydro-1H-pyrrolizin-7a-yl)methoxy)pyrido[4,3-d]pyrimidin-4-yl)piperidin-3-yl)methanesulfonamide]",0.664,0.763
"O=C1NC(=O)C2(CCCN(c3nc(OCC45CCCN4CCC5)nc4c(F)c(-c5cccc6cccc(CF)c56)ncc34)C2)N1 (stereo not shown) [Example 462, 7-(8-fluoro-7-(8-(fluoromethyl)naphthalen-1-yl)-2-((hexahydro-1H-pyrrolizin-7a-yl)methoxy)pyrido[4,3-d]pyrimidin-4-yl)-1,3,7-triazaspiro[4.5]decane-2,4-dione]",0.567,0.393
"NS(=O)(=O)CC1CCCN(c2nc(OCC34CCCN3CCC4)nc3c(F)c(-c4cccc5cccc(C(F)F)c45)ncc23)C1 (stereo not shown) [Example 463, 1-(1-(7-(8-(difluoromethyl)naphthalen-1-yl)-8-fluoro-2-((hexahydro-1H-pyrrolizin-7a-yl)methoxy)pyrido[4,3-d]pyrimidin-4-yl)piperidin-3-yl)methanesulfonamide]",1.68,1.91
"O=C1NC(=O)C2(CCCN(c3nc(OCC45CCCN4CCC5)nc4c(F)c(-c5cccc6cccc(C(F)F)c56)ncc34)C2)N1 (stereo not shown) [Example 464, 7-(7-(8-(difluoromethyl)naphthalen-1-yl)-8-fluoro-2-((hexahydro-1H-pyrrolizin-7a-yl)methoxy)pyrido[4,3-d]pyrimidin-4-yl)-1,3,7-triazaspiro[4.5]decane-2,4-dione]",0.717,0.506
"O=C1CC2(CCCN(c3nc(OCC45CCCN4CCC5)nc4c(F)c(-c5cccc6cccc(C(F)F)c56)ncc34)C2)N1 (stereo not shown) [Example 466, 6-(7-(8-(difluoromethyl)naphthalen-1-yl)-8-fluoro-2-((hexahydro-1H-pyrrolizin-7a-yl)methoxy)pyrido[4,3-d]pyrimidin-4-yl)-1,6-diazaspiro[3.5]nonan-2-one]",3.51,3.58
"O=C1CC2(CCCN(c3nc(OCC45CCCN4CCC5)nc4c(F)c(-c5cccc6cccc(C(F)(F)F)c56)ncc34)C2)N1 (stereo not shown) [Example 467, 6-(8-fluoro-2-((hexahydro-1H-pyrrolizin-7a-yl)methoxy)-7-(8-(trifluoromethyl)naphthalen-1-yl)pyrido[4,3-d]pyrimidin-4-yl)-1,6-diazaspiro[3.5]nonan-2-one]",1.65,1.8
"O=C1CC2(CCCN(c3nc(OCC45CCCN4CCC5)nc4c(F)c(-c5cccc6cccc(CF)c56)ncc34)C2)N1 (stereo not shown) [Example 468, 6-(8-fluoro-7-(8-(fluoromethyl)naphthalen-1-yl)-2-((hexahydro-1H-pyrrolizin-7a-yl)methoxy)pyrido[4,3-d]pyrimidin-4-yl)-1,6-diazaspiro[3.5]nonan-2-one]",5.11,4.19
"CSc1cccc2cccc(-c3ncc4c(N5CCCC6(CC(=O)N6)C5)nc(OCC56CCCN5CCC6)nc4c3F)c12 (stereo not shown) [Example 469, 6-(8-fluoro-2-((hexahydro-1H-pyrrolizin-7a-yl)methoxy)-7-(8-(methylthio)naphthalen-1-yl)pyrido[4,3-d]pyrimidin-4-yl)-1,6-diazaspiro[3.5]nonan-2-one]",0.231,0.256
"O=C1CC2(CCCN(c3nc(OCC45CCCN4CCC5)nc4c(F)c(-c5cccc6cccc(CCF)c56)ncc34)C2)N1 (stereo not shown) [Example 470, 6-(8-fluoro-7-(8-(2-fluoroethyl)naphthalen-1-yl)-2-((hexahydro-1H-pyrrolizin-7a-yl)methoxy)pyrido[4,3-d]pyrimidin-4-yl)-1,6-diazaspiro[3.5]nonan-2-one]",0.663,0.565
Cc1cc2[nH]ncc2c(-c2ncc3c(N4CCCC(C)(O)C4)nc(OC[C@@]45CCCN4C[C@H](F)C5)nc3c2F)c1C (stereo partly shown) [Example 471],0.451,0.319
"CCc1cccc2cc3[nH]ncc3c(-c3ncc4c(N5CCC[C@@](C)(O)C5)nc(OC[C@@]56CCCN5C[C@H](F)C6)nc4c3F)c12 [Example 473, (3R)-1-(7-(5-ethyl-1H-benzo[f]indazol-4-yl)-8-fluoro-2-(((2R,7aS)-2-fluorohexahydro-1H-pyrrolizin-7a-yl)methoxy)pyrido[4,3-d]pyrimidin-4-yl)-3-methylpiperidin-3-ol]",0.011,0.011
"Fc1c(-c2cccc3cccc(Cl)c23)ncc2c(NCCCOC(F)F)nc(OCC34CCCN3CCC4)nc12 [Example 474, 7-(8-chloronaphthalen-1-yl)-N-(3-(difluoromethoxy)propyl)-8-fluoro-2-((tetrahydro-1H-pyrrolizin-7a(5H)-yl)methoxy)pyrido[4,3-d]pyrimidin-4-amine]",6.35,5.97
"NC(=O)C(O)CNc1nc(OCC23CCCN2CCC3)nc2c(F)c(-c3cccc4cccc(Cl)c34)ncc12 (stereo not shown) [Example 475, 3-((7-(8-chloronaphthalen-1-yl)-8-fluoro-2-((tetrahydro-1H-pyrrolizin-7a(5H)-yl)methoxy)pyrido[4,3-d]pyrimidin-4-yl)amino)-2-hydroxypropanamide]",8.14,7.52
